Assays:
leukemic mitochondria = experiment: Cytochrome c release from BCL-2 dependent leukemia mitochondria; type: biochemical, mouse
Method: Mitochondria were purified from liver and FL5.12cells as previously described (Letai et al., 2002). Mitochondria were purified from leukemia cells and 2B4 cells as previously described for FL5.12 cells. Mitochondria were incubated with treatments for 45 (mouse liver mitochondria) or 35 minutes (FL5.12, 2B4, and leukemic mitochondria). Release of cytochrome c was determined by a comparison of cytochrome c in the pellet and supernatant following treatment, quantitated by ELISA (R&D systems). When results of multiple experiments were averaged, results from solvent-only (DMSO) treatments values were subtracted from each, so that 0 release reflects that observed in solvent-only treatments.
Leukemia prone mice were generated as previously described (Letai, 2004). Mouse experimental protocols conform to the relevant regulatory standards and were approved by the Dana-Farber Cancer Institute Animal Care and Use Committee.
Previous results have described a mouse acute lymphocytic leukemia model in which c-myc is constitutively expressed and human BCL-2 is repressibly expressed. […]
Mitochondria were isolated from leukemia cells and exposed to sensitizer BH3 peptides. Subsequently, cytochrome c release was measured. […]

Amino acid sequences for entries named in this document (tags omitted). Residues count along the entry.
UniProt P10415, 1-218 limits assumed: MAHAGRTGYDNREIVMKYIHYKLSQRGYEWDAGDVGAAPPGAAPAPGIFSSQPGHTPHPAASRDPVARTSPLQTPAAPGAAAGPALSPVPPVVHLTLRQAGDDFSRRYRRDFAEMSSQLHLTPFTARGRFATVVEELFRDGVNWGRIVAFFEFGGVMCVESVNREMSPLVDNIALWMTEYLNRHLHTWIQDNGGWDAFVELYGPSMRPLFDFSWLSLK

BCL-2 = BCL-2 (Homo sapiens, UniProt P10415); experiment: Fluorescence polarization binding assay; set-up: In each case, the C-terminus transmembrane domain was truncated to maintain solubility in aqueous solution; GST; made in house; host or cells: bacteria

## CC[C@H](C)[C@H](NC(=O)[C@H](CS)NC(=O)[C@H](C)NC(=O)[C@H](CC(C)C)NC(=O)[C@H](CCCNC(=N)N)NC(=O)[C@H](CC(C)C)NC(=O)[C@H](C)NC(=O)[C@H](CC(C)C)NC(=O)[C@H](C)NC(=O)[C@H](CC(=O)O)NC(=O)[C@H](CO)NC(=O)CNC(=O)[C@H](CCC(=O)O)NC(=O)[C@H](CCSC)NC(=O)CCCCCNC(=S)Nc1ccc2c(c1)C(=O)OC21c2ccc(O)cc2Oc2cc(O)ccc21)C(=O)NCC(=O)N[C@@H](CC(=O)O)C(=O)N[C@@H](CCC(=O)O)C(=O)N[C@@H](CCSC)C(=O)N[C@@H](CC(=O)O)C(=O)N[C@H](C(=O)O)C(C)C [BIK]
Leukemic mitochondria
  concentration needed for cytochrome c release relative to BAD BH3: requires a ten-fold higher concentration
BCL-2
  fold lower affinity for BCL-2 than BAD, PUMA or BMF BH3: approximately 10 fold
